By UniProt entry, the sequences of proteins in these tests, tags left out.
UniProt Q96SW2, whole entry: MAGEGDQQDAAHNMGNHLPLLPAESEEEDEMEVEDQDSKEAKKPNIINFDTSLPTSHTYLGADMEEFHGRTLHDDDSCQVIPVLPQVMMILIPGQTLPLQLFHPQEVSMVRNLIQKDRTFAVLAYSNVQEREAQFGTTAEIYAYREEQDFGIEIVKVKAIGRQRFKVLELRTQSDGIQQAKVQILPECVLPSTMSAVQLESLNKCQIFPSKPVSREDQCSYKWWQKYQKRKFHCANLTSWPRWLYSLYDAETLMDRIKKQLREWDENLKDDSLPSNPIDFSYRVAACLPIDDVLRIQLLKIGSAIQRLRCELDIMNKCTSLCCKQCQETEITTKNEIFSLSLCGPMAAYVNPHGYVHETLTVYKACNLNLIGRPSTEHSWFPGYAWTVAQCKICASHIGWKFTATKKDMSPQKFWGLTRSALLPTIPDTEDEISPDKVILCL
UniProt Q9UKS7, whole entry: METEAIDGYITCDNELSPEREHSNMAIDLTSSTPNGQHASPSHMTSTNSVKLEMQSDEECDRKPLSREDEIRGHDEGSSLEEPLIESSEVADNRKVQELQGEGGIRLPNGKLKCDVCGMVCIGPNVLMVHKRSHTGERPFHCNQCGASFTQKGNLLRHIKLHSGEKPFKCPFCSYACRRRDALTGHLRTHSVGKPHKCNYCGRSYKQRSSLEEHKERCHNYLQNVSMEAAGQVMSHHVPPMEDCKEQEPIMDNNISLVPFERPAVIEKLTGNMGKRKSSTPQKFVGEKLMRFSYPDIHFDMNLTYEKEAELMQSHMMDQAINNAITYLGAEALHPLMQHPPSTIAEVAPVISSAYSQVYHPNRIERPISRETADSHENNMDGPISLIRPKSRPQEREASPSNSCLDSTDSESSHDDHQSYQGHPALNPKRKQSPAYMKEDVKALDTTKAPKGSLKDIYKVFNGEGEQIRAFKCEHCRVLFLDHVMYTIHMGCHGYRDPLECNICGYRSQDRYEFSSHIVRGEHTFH
UniProt Q9UKT9, whole entry: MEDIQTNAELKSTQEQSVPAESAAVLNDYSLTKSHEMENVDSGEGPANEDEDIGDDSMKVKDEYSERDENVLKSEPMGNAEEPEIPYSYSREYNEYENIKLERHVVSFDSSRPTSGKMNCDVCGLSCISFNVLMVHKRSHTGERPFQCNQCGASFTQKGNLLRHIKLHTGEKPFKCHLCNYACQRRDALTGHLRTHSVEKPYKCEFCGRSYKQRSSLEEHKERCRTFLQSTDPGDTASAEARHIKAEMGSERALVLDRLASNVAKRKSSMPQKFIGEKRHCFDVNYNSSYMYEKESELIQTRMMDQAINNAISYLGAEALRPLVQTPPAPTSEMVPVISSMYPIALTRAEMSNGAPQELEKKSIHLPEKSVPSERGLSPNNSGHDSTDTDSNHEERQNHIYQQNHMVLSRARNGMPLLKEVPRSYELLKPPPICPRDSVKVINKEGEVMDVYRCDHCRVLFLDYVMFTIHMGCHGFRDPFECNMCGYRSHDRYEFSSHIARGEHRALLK
UniProt P48729, whole entry: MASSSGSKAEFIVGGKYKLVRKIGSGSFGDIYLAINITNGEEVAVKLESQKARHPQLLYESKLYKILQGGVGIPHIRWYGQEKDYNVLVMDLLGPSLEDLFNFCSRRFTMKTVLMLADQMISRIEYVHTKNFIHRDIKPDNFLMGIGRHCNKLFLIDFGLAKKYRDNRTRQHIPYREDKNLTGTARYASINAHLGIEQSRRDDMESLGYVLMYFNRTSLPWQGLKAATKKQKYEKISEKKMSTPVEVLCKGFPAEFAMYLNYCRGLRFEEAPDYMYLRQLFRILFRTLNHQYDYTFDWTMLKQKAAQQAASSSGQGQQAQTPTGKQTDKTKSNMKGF
UniProt P15170, whole entry: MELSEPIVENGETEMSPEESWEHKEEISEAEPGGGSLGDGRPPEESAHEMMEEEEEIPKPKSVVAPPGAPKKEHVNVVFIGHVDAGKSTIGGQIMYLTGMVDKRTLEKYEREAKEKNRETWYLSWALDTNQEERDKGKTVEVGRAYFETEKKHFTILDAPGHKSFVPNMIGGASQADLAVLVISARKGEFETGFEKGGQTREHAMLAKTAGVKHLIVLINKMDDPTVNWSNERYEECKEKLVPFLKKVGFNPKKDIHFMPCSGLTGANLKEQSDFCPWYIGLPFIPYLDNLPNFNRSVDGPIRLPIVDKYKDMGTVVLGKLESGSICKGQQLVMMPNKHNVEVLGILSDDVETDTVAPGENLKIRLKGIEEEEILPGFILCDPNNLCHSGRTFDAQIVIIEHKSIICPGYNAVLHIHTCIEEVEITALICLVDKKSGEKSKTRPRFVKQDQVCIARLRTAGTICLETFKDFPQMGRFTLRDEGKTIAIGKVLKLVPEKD
UniProt Q13422, whole entry: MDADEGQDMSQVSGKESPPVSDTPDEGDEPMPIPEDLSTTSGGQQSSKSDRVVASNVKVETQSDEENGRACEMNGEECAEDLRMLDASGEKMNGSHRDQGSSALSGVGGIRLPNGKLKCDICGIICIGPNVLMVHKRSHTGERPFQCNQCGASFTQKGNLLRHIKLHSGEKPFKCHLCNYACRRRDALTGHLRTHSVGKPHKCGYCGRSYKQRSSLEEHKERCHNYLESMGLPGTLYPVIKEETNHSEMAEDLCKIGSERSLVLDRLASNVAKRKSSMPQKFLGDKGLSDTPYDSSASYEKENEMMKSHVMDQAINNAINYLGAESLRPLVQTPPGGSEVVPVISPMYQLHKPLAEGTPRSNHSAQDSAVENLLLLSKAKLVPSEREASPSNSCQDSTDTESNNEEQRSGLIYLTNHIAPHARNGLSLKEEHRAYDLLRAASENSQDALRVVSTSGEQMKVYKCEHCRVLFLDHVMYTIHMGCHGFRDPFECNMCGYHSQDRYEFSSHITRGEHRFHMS
UniProt P30291, whole entry: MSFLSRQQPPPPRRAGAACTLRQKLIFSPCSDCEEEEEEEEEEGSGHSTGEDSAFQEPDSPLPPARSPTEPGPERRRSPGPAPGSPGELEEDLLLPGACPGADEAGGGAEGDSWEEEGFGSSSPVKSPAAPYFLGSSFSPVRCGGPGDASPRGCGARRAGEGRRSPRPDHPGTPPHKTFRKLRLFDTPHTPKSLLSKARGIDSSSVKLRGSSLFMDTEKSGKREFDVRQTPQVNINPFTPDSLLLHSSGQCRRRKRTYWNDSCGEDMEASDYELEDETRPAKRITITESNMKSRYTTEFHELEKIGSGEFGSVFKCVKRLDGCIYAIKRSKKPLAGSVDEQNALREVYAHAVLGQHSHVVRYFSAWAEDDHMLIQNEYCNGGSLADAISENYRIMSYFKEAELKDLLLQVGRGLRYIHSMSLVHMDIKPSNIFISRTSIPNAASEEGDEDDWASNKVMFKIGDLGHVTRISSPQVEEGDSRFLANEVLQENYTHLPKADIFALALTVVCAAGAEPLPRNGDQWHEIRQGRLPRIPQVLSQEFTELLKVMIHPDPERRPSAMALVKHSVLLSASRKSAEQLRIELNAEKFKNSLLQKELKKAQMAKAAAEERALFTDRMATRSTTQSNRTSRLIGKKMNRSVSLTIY
UniProt Q16531, whole entry partner: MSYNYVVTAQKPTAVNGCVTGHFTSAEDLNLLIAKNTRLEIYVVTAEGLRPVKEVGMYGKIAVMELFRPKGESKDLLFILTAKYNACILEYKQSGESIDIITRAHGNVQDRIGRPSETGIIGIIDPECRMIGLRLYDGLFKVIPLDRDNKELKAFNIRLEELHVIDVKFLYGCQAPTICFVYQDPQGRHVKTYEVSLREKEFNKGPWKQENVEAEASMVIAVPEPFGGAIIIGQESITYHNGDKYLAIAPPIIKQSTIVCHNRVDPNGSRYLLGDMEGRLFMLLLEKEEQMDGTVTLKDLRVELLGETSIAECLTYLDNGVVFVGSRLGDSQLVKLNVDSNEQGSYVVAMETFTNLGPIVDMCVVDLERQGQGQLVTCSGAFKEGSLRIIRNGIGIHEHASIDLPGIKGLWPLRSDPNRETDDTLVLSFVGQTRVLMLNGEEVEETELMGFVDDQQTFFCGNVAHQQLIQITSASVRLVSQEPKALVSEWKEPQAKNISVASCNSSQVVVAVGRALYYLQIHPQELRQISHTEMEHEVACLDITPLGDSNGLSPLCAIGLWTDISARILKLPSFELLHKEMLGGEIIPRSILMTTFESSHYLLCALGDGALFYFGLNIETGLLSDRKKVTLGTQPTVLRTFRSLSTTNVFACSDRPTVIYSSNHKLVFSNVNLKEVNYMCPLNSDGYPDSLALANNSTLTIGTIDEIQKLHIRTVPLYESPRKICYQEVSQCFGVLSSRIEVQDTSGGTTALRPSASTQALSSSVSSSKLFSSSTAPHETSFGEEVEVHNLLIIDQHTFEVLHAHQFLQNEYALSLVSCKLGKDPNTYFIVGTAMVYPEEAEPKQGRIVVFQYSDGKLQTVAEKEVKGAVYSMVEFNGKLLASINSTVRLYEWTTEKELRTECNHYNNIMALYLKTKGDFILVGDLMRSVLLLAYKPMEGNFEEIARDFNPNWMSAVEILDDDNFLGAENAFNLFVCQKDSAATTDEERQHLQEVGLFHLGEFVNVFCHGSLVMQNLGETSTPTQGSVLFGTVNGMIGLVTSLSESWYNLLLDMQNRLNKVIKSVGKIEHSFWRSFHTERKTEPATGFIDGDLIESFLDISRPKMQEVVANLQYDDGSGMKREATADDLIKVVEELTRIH

In patent publication EP4834897A1, “COMPOUNDS WITH TWO AZAHETEROCYCLES SUBSTITUTED ISOINDOLINONE SKELETON AND USES THEREOF” (dated 2026):

Biological target: CRBN (Homo sapiens, UniProt Q96SW2)
Assay: CRBN binding affinity by HTRF (CEREBLON BINDING kit)
Settings: CRBN binding, HTRF, compound at 0.5 µM

| Compound | Inhibition Rate at 0.5 µM (%) |
| --- | --- |
| O=C1CCC(N2Cc3cc(C(=O)N4CCC(N5CCN(c6noc7cc(F)ccc67)CC5)C(F)(F)C4)cc(F)c3C2=O)C(=O)N1 (stereo not drawn) | a3 (30% < a3 ≤ 40%) |
| CC1(C)CCC(C(=O)N2CCN(C3CCN(C(=O)c4cccc5c4CN(C4CCC(=O)NC4=O)C5=O)CC3(F)F)CC2)=C(c2ccc(Cl)cc2)C1 (stereo not drawn) | a7 (70% < a7 ≤80%) |
| O=C1CCC(N2Cc3ccc(C(=O)N4CCC(N5CCN(C(c6ccccc6)c6ccccn6)CC5)C(F)(F)C4)cc3C2=O)C(=O)N1 (stereo not drawn) | a3 (30% < a3 ≤ 40%) |

Same assay, conditions: CRBN binding, HTRF, compound at 2 µM

| Compound | Inhibition Rate at 2 µM (%) |
| --- | --- |
| O=C1CCC(N2Cc3cc(C(=O)N4CCC(N5CCN(c6noc7cc(F)ccc67)CC5)C(F)(F)C4)cc(F)c3C2=O)C(=O)N1 (stereo not drawn) | a7 (70% < a7 ≤80%) |
| CC1(C)CCC(C(=O)N2CCN(C3CCN(C(=O)c4cccc5c4CN(C4CCC(=O)NC4=O)C5=O)CC3(F)F)CC2)=C(c2ccc(Cl)cc2)C1 (stereo not drawn) | a8 (80% < a8 ≤100%) |
| O=C1CCC(N2Cc3ccc(C(=O)N4CCC(N5CCN(C(c6ccccc6)c6ccccn6)CC5)C(F)(F)C4)cc3C2=O)C(=O)N1 (stereo not drawn) | a6 (60% < a6 ≤ 70%) |

Biological target: IKZF2 (Homo sapiens, UniProt Q96SW2+Q9UKS7)
Assay: Western blot assay of substrate protein degradation in hPBMCs
Settings: 24 hours treatment, compounds at 50 nM and 500 nM (concentration behind the class not stated)

| Compound | substrate protein remaining % (IKZF2) |
| --- | --- |
| O=C1CCC(N2Cc3cc(C(=O)N4CCC(N5CCN(c6noc7cc(F)ccc67)CC5)C(F)(F)C4)cc(F)c3C2=O)C(=O)N1 (stereo not drawn) | B (80%< substrate protein remaining %≤ 100%) |
| CC1(C)CCC(C(=O)N2CCN(C3CCN(C(=O)c4cccc5c4CN(C4CCC(=O)NC4=O)C5=O)CC3(F)F)CC2)=C(c2ccc(Cl)cc2)C1 (stereo not drawn) | B (80%< substrate protein remaining %≤ 100%) |
| O=C1CCC(N2Cc3ccc(C(=O)N4CCC(N5CCN(C(c6ccccc6)c6ccccn6)CC5)C(F)(F)C4)cc3C2=O)C(=O)N1 (stereo not drawn) | B (80%< substrate protein remaining %≤ 100%) |

Biological target: IKZF3 (Homo sapiens, UniProt Q96SW2+Q9UKT9)
Assay: as above
Settings: 24 hours treatment, compounds at 50 nM and 500 nM (concentration behind the class not stated)

| Compound | substrate protein remaining % (IKZF3) |
| --- | --- |
| O=C1CCC(N2Cc3cc(C(=O)N4CCC(N5CCN(c6noc7cc(F)ccc67)CC5)C(F)(F)C4)cc(F)c3C2=O)C(=O)N1 (stereo not drawn) | A (0% ≤ substrate protein remaining % ≤ 80%) |
| CC1(C)CCC(C(=O)N2CCN(C3CCN(C(=O)c4cccc5c4CN(C4CCC(=O)NC4=O)C5=O)CC3(F)F)CC2)=C(c2ccc(Cl)cc2)C1 (stereo not drawn) | B (80%< substrate protein remaining %≤ 100%) |
| O=C1CCC(N2Cc3ccc(C(=O)N4CCC(N5CCN(C(c6ccccc6)c6ccccn6)CC5)C(F)(F)C4)cc3C2=O)C(=O)N1 (stereo not drawn) | A (0% ≤ substrate protein remaining % ≤ 80%) |

Biological target: CK1α (Homo sapiens, UniProt P48729+Q96SW2)
Assay: as above
Settings: 24 hours treatment, compounds at 50 nM and 500 nM (concentration behind the class not stated)

| Compound | substrate protein remaining % (CK1a) |
| --- | --- |
| O=C1CCC(N2Cc3cc(C(=O)N4CCC(N5CCN(c6noc7cc(F)ccc67)CC5)C(F)(F)C4)cc(F)c3C2=O)C(=O)N1 (stereo not drawn) | B (80%< substrate protein remaining %≤ 100%) |
| CC1(C)CCC(C(=O)N2CCN(C3CCN(C(=O)c4cccc5c4CN(C4CCC(=O)NC4=O)C5=O)CC3(F)F)CC2)=C(c2ccc(Cl)cc2)C1 (stereo not drawn) | B (80%< substrate protein remaining %≤ 100%) |
| O=C1CCC(N2Cc3ccc(C(=O)N4CCC(N5CCN(C(c6ccccc6)c6ccccn6)CC5)C(F)(F)C4)cc3C2=O)C(=O)N1 (stereo not drawn) | B (80%< substrate protein remaining %≤ 100%) |

Biological target: GSPT1 (Homo sapiens, UniProt P15170+Q96SW2)
Assay: as above
Settings: 24 hours treatment, compounds at 50 nM and 500 nM (concentration behind the class not stated)

| Compound | substrate protein remaining % (GSPT1) |
| --- | --- |
| O=C1CCC(N2Cc3cc(C(=O)N4CCC(N5CCN(c6noc7cc(F)ccc67)CC5)C(F)(F)C4)cc(F)c3C2=O)C(=O)N1 (stereo not drawn) | A (0% ≤ substrate protein remaining % ≤ 80%) |
| CC1(C)CCC(C(=O)N2CCN(C3CCN(C(=O)c4cccc5c4CN(C4CCC(=O)NC4=O)C5=O)CC3(F)F)CC2)=C(c2ccc(Cl)cc2)C1 (stereo not drawn) | A (0% ≤ substrate protein remaining % ≤ 80%) |
| O=C1CCC(N2Cc3ccc(C(=O)N4CCC(N5CCN(C(c6ccccc6)c6ccccn6)CC5)C(F)(F)C4)cc3C2=O)C(=O)N1 (stereo not drawn) | A (0% ≤ substrate protein remaining % ≤ 80%) |

Biological target: IKZF1 (Homo sapiens, UniProt Q13422+Q96SW2)
Assay: as above
Settings: 24 hours treatment, compounds at 50 nM and 500 nM (concentration behind the class not stated)

| Compound | substrate protein remaining % (IKZF 1) |
| --- | --- |
| O=C1CCC(N2Cc3cc(C(=O)N4CCC(N5CCN(c6noc7cc(F)ccc67)CC5)C(F)(F)C4)cc(F)c3C2=O)C(=O)N1 (stereo not drawn) | B (80%< substrate protein remaining %≤ 100%) |
| CC1(C)CCC(C(=O)N2CCN(C3CCN(C(=O)c4cccc5c4CN(C4CCC(=O)NC4=O)C5=O)CC3(F)F)CC2)=C(c2ccc(Cl)cc2)C1 (stereo not drawn) | B (80%< substrate protein remaining %≤ 100%) |
| O=C1CCC(N2Cc3ccc(C(=O)N4CCC(N5CCN(C(c6ccccc6)c6ccccn6)CC5)C(F)(F)C4)cc3C2=O)C(=O)N1 (stereo not drawn) | B (80%< substrate protein remaining %≤ 100%) |

Biological target: WEE1 (Homo sapiens, UniProt P30291+Q96SW2)
Assay: as above
Settings: 24 hours treatment, compounds at 50 nM and 500 nM (concentration behind the class not stated)

| Compound | substrate protein remaining % (WEE1) |
| --- | --- |
| O=C1CCC(N2Cc3cc(C(=O)N4CCC(N5CCN(c6noc7cc(F)ccc67)CC5)C(F)(F)C4)cc(F)c3C2=O)C(=O)N1 (stereo not drawn) | B (80%< substrate protein remaining %≤ 100%) |
| CC1(C)CCC(C(=O)N2CCN(C3CCN(C(=O)c4cccc5c4CN(C4CCC(=O)NC4=O)C5=O)CC3(F)F)CC2)=C(c2ccc(Cl)cc2)C1 (stereo not drawn) | B (80%< substrate protein remaining %≤ 100%) |
| O=C1CCC(N2Cc3ccc(C(=O)N4CCC(N5CCN(C(c6ccccc6)c6ccccn6)CC5)C(F)(F)C4)cc3C2=O)C(=O)N1 (stereo not drawn) | B (80%< substrate protein remaining %≤ 100%) |
